{"sequences": {"note": "The chains behind the UniProt entries cited, without tags or fusion partners.", "UniProt Q9Y253, whole entry": "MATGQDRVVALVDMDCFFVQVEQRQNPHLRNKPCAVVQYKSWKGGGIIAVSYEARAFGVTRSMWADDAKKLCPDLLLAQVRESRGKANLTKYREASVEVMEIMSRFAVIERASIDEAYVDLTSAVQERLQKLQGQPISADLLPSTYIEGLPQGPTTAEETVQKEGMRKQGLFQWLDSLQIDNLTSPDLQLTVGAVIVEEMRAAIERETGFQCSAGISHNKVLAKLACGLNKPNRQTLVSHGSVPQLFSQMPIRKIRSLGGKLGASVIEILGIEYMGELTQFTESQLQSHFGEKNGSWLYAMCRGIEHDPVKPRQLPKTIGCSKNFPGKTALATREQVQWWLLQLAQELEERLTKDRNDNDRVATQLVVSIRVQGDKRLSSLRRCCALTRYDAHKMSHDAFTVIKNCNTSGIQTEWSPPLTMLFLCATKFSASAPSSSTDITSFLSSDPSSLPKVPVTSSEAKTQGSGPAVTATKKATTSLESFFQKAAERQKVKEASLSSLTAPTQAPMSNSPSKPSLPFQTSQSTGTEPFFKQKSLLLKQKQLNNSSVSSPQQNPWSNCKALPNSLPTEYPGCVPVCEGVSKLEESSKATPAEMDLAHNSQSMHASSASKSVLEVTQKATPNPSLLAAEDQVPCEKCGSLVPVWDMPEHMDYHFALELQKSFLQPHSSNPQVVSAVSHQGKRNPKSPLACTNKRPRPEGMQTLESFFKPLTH"}, "source": "PubChem BioAssay AID588591", "about": "(National Center for Advancing Translational Sciences (NCATS), 2011)", "note": "“And” between values parts separate entries of the source, which are not always exact repeats. Equal entries are not always repeated. This is a selection; strong and weak results do not stand in their true shares. Some of these compounds have results that are not shown, active ones among them. Inconclusive results are not listed. The source made the active and inactive calls. Calls come from the whole dose curve; as a rule, active = well fitted inhibition curve with a large enough effect; inconclusive = small, poorly fitted or top-dose-only effect, or another doubt; inactive = no such curve, though single readings can be large or run the other way. % is set by controls: 0 for no effect and ±100 for the full control effect."}
{"biological_target": "DNA polymerase eta (Homo sapiens) (UniProt Q9Y253)", "test": "qHTS for Inhibitors of Polymerase Eta", "details": "recombinant Pol eta, fluorescent DNA replication assay; at 114 µM (top of the series)"}
{"smiles": "COc1ccc(Br)c(C(=O)NCC2(N3CCCCC3)CCCCC2)c1", "activity change, negative = inhibition": "inactive: 1.05%"}
{"smiles": "COc1cc(C(=O)NCC2(N(C)C)CCCCC2)cc(OC)c1OC", "activity change, negative = inhibition": "inactive: -16.1%"}
{"smiles": "Cc1cccc(C(=O)NCC2(N(C)C)CCCCC2)c1", "activity change, negative = inhibition": "inactive: -16.3%"}
{"smiles": "C=C(C)C#CC(O)(C(=O)OC1CCN(C)CC1)c1ccccc1", "note": "(stereo unspecified)", "activity change, negative = inhibition": "inactive: -3.71%"}
{"smiles": "CN(C)c1cccc(C(=O)NCC2(N(C)C)CCCCC2)c1", "activity change, negative = inhibition": "inactive: -8.22%"}
{"smiles": "O=C(OCCN1CCCC1)C(O)(c1ccccc1)c1ccccc1", "activity change, negative = inhibition": "inactive: -14.5%"}
{"smiles": "CC(C)Oc1ccc(C(=O)NCC2(N(C)C)CCCCC2)cc1", "activity change, negative = inhibition": "inactive: -3.84% and inactive: -8.32%"}
{"smiles": "O=C(OC1CN2CCC1CC2)C(CO)(c1ccccc1)c1ccccc1", "note": "(stereo unspecified)", "activity change, negative = inhibition": "inactive: -1.79%"}
{"smiles": "COc1cccc(C(=O)NCC2(N3CCOCC3)CCCCC2)c1", "activity change, negative = inhibition": "inactive: -3.28%"}
{"smiles": "CC(C)COc1ccc(C(=O)NCC2(N(C)C)CCCCC2)cc1", "activity change, negative = inhibition": "inactive: -3.93%"}
{"smiles": "COc1ccc(C(=O)NCC2(N(C)C)CCCCC2)cc1Cl", "activity change, negative = inhibition": "inactive: -5.22%"}
{"smiles": "COc1ccc(Cl)cc1C(=O)NCC1(N(C)C)CCCCC1", "activity change, negative = inhibition": "inactive: -5.05%"}
{"smiles": "COc1cccc(C(=O)NCC2(N3CCCCC3)CCCCC2)c1", "activity change, negative = inhibition": "inactive: -14.7%"}
{"smiles": "O=C(NCC1(N2CCCCC2)CCCCC1)c1cccc(Cl)c1", "activity change, negative = inhibition": "inactive: 2.18%"}
{"smiles": "CN(C)C1(CNC(=O)c2ccc(Br)cc2)CCCCC1", "activity change, negative = inhibition": "inactive: -8.74%"}
{"smiles": "COc1cc(C(=O)NCC2(N(C)C)CCCCC2)c([N+](=O)[O-])cc1OC", "activity change, negative = inhibition": "inactive: -3.19%"}
{"smiles": "O=C(NCC1(N2CCCCC2)CCCCC1)c1cc(F)c(F)cc1Cl", "activity change, negative = inhibition": "inactive: -24.2%"}
{"smiles": "C=CCN1CCN(CCOC(=O)C(O)(c2ccccc2)c2ccccc2)CC1", "activity change, negative = inhibition": "inactive: -5.9%"}
{"smiles": "O=C(NCC1(N2CCCCC2)CCCCC1)c1cccc(Br)c1", "activity change, negative = inhibition": "inactive: -12.9%"}
{"smiles": "Cc1cc(C(=O)NCC2(N3CCCCC3)CCCCC2)ccc1[N+](=O)[O-]", "activity change, negative = inhibition": "inactive: -11.4%"}
{"smiles": "CCN1CCCC(OC(=O)C2(O)c3ccccc3C=Cc3ccccc32)C1", "note": "(stereo unspecified)", "activity change, negative = inhibition": "inactive: -4.16%"}
{"smiles": "CCOc1cccc(C(=O)NCC2(N(C)C)CCCCC2)c1", "activity change, negative = inhibition": "inactive: 3.84%"}
{"smiles": "COc1ccc(C(=O)NCC2(N(C)C)CCCCC2)cc1", "activity change, negative = inhibition": "inactive: -3.85%"}
{"smiles": "CN(C)C1CCCC1OC(=O)C(O)(c1ccccc1)c1ccccc1", "note": "(stereo unspecified)", "activity change, negative = inhibition": "inactive: -16.2%"}
{"smiles": "CN(C)c1ccc(C(=O)NCC2(N(C)C)CCCCC2)cc1", "activity change, negative = inhibition": "inactive: 0.571%"}
{"smiles": "CN(C)C1(CNC(=O)c2ccccc2[N+](=O)[O-])CCCCC1", "activity change, negative = inhibition": "inactive: 0.731%"}
{"smiles": "Cc1ccccc1C(=O)NCC1(N2CCCCC2)CCCCC1", "activity change, negative = inhibition": "inactive: -4.6%"}
{"smiles": "CCCCOc1ccccc1C(=O)NCC1(N(C)C)CCCCC1", "activity change, negative = inhibition": "inactive: -10.9%"}
{"smiles": "CC(C)N1C(=O)CC2(CCN(CCOC(=O)C(O)(c3ccccc3)c3ccccc3)CC2)C1=O", "activity change, negative = inhibition": "inactive: -17.1%"}
{"smiles": "COc1cc(SC)ccc1C(=O)NCC1(N(C)C)CCCCC1", "activity change, negative = inhibition": "inactive: -4.45%"}
{"smiles": "CCN(CC)CC(C)C(C)OC(=O)C(O)(c1ccccc1)c1ccccc1", "note": "(stereo unspecified)", "activity change, negative = inhibition": "inactive: -1.53%"}
{"smiles": "CN(C)C1(CNC(=O)c2cccc(Cl)c2)CCCCC1", "activity change, negative = inhibition": "inactive: 1.93%"}
{"smiles": "CN(C)C1(CNC(=O)c2ccccc2F)CCCCC1", "activity change, negative = inhibition": "inactive: -10.4%"}
{"smiles": "Cc1ccc(C(=O)NCC2(N3CCCCC3)CCCCC2)cc1", "activity change, negative = inhibition": "inactive: 17.3%"}
{"smiles": "O=C(NCC1(N2CCCCC2)CCCCC1)c1cc([N+](=O)[O-])ccc1Cl", "activity change, negative = inhibition": "inactive: -20.9%"}
{"smiles": "CN1[C@@H]2CC[C@H]1CC(OC(=O)C(O)(c1ccccc1)c1ccccc1)C2", "note": "(stereo partly specified)", "activity change, negative = inhibition": "inactive: 0.114%"}
